Patent US12378211B2, “Carbonic anhydrase inhibitors and antibiotics against multidrug resistant bacteria” (Purdue Research Foundation, priority 2018, dated 2025)
Converted amounts (≈) assume the structure as drawn.

Key:
[1] = system: Wild-type E. fecalis (NR 31975); assay: MIC against wild-type strain (mutant study); type: cell-based, Enterococcus fecalis; conditions: Enterococcus
[2] = system: fibroblast-like monkey kidney cell line (VERO cell); assay: In vitro cytotoxicity, MTS assay, VERO cells; type: cell-based; conditions: at concentration up to 128 μg/mL; tested at 64 and 128 μg/mL; two hours

For `CCCC(=O)Nc1nnc(S(N)(=O)=O)s1` [CAI0013, N-(5-Sulfamoyl-1,3,4-thiadiazol-2-yl) butyramide], the MIC [1] was 2 µg/mL (≈ 7.99 µM) and the “toxicity to VERO cells (percent viable cells relative to DMSO)” value [2] was “non-toxic”.
